Results published in PMC8206213, “An L-2-hydroxyglutarate biosensor based on specific transcriptional regulator LhgR” (Nature Communications, 2021).

Legend:
Format in all cases: binding, Pseudomonas putida W619
[1] = tested on: LHGFR0N7C; assay: Influence of other compounds on the response of purified LHGFR0N7C to L-2-HG; conditions: Suppl. Fig. 9b; L-2-HG alone or with the compound; three replicates
Experimental: (§1) Purified L-2-HG biosensors and different compounds were diluted by 50 mM Tris-HCl buffer (pH 7.4), mixed together in a black 96-well plate at a volume ratio of 3:1, and the fluorescence intensities were measured using an EnSight microplate reader (PerkinElmer, USA) with excitation at 430 nm, emission at 485 nm (mTFP) and 528 nm (Venus). […] The [L-2-HG], Kd, and p refer to the L-2-HG concentration, apparent dissociation constant, and Hill slope, respectively. Emission spectra were recorded at 430 nm excitation, in steps of 2 nm. Excitation spectra were recorded using emission at 550 nm, excitation from 380 to 535 nm in steps of 2 nm.

[2] = tested on: LHGFR0N3C; assay: Specificity of purified LHGFR0N3C, emission ratio with 240 μM compounds; conditions: 240 μM compound
Experimental: as §1

[3] = tested on: LHGFR0N3C; assay: Influence of other compounds on the response of purified LHGFR0N3C to L-2-HG; conditions: Suppl. Fig. 9a; L-2-HG alone or with the compound; three replicates
Experimental: as §1

[4] = tested on: LHGFR0N7C; assay: Specificity of purified LHGFR0N7C, emission ratio with 240 μM compounds; conditions: 240 μM compound
Experimental: as §1

O=C(O)CC(C(=O)O)C(O)C(=O)O (stereo not drawn) [Isocitrate]
Emission ratio [1]: 2.567 and 2.522 and 2.6156
Emission ratio [2]: 1.348 and 1.426 and 1.4104
Induction of emission ratio changes [2]: None
Emission ratio [3]: 1.979 and 2.009 and 2.114
Emission ratio [4]: 1.698 and 1.723 and 1.716
Induction of emission ratio changes [4]: None

“And” between values parts separate entries of the source, which are not always exact repeats. Equal entries are not always repeated.
